esBAF inh – Bmi1 luciferase reporter increase in mESCs, primary screen, esBAF inhibitor project, mouse ES cells, Bmi1 luciferase knock-in, single point | 24 h; 100% = twice the neutral-well signal | reporter increase, % at 12.5 µM | hit rate 2% among 350,000; in the data active = activation above about 40%; inconclusive = no clear call, values can overlap the other calls;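 also: a rise in the Bmi1 reporter signal indicates esBAF inhibition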
Yeast UUG start – alters start codon recognition fidelity in yeast. S. cerevisiae UUG-firefly luciferase reporter, luminescence/redox ratio. 350,000 tested, 0.13% active. activity score, % at 18.7 µM. AID 602363;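 active means replicate mean at a twofold rise or more, about +100% in these data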;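 further: firefly luciferase made from a UUG start codon reports start codon fidelity; reporter light over untreated wells divided by growth signal over untreated wells; some hits fall short of that in this replicate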
MITF act – activators of MITF-driven TRPM1 promoter reporter, primary screen, cell-based, SK-MEL-5, luciferase, single point | SK-MEL-5 TRPM1-promoter luciferase, 24 h; % of positive control, neutral wells = 0 | activation, % at 12.5 µM | hit rate 0.75% among 300,000;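 active = mean activation of at least 80% with every replicate also reaching 80%; inconclusive = mean reaches 80% but some replicate falls short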
Wnt act – Wnt/beta-catenin pathway activators, primary screen, cell-based, plate reader, single point; Wnt/beta-catenin reporter cell assay, activator; activation, % at 9.35 µM; hit rate 1.2% among 300,000; in the data active = activation above about 30%, passing the limit was not always enough; inconclusive = no clear call, values can overlap the other calls
PglD inh – C. jejuni PglD acetyltransferase inhibitors, primary screen, biochemical, DTNB colorimetric, single point; UDP-N-acetylbacillosamine N-acetyltransferase PglD (Campylobacter jejuni); purified PglD enzyme, DTNB colorimetric CoA detection; inhibition, % at 12.5 µM; hit rate 0.098% among 360,000; in the data active = inhibition above about 16%, passing the limit was not always enough; inconclusive = no clear call, values can overlap the other calls
miR-122 sensor – miR-122 Renilla sensor signal increase in Huh7, primary screen, miR-122 inhibitor project, cell-based, single point, plate reader; Huh7 miR-122 Renilla luciferase sensor, 48 h; neutral wells = 0, positive control = 100; activation (reporter increase), % at 12.5 µM; hit rate 0.3% among 340,000; AID 602342, 2012;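 active = mean replicate activation score at least 90 and every replicate individually at or above 90; inconclusive = only one of the two criteria met; inactive = neither criterion met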;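 also: higher luciferase means less miR-122 activity so hits act as miR-122 inhibitors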
Numbers stand for hits; n = inactive; u = inconclusive; x = no result given. This is a sample that favours compounds with a hit; in the whole collection about 2.8% have one here.

SMILES	esBAF inh	Yeast UUG start	MITF act	Wnt act	PglD inh	miR-122 sensor
COc1ccc(S(=O)(=O)N(C)C[C@H]2OCCCC[C@@H](C)Oc3ccc(NS(=O)(=O)c4cn(C)cn4)cc3C(=O)N([C@H](C)CO)C[C@H]2C)cc1	n	x	x	x	n	n
CCNC(=O)[C@H]1[C@H](CO)[C@H]2Cn3c(ccc(-c4ccccc4)c3=O)[C@@H]1N2C(=O)C1CC1	n	x	x	x	n	n
Cc1ccc(S(=O)(=O)Nc2cccc3cccnc23)c([N+](=O)[O-])c1	n	n	n	n	n	100
Cc1cc(C)c(NS(=O)(=O)c2cccc3cccnc23)c(C)c1	n	n	n	x	n	n
O=C(CCN1CCCCC1)NCC[C@@H]1CC[C@@H](NC(=O)C2CCC2)[C@H](CO)O1	n	n	x	x	n	n
Cc1onc(-c2c(F)cccc2Cl)c1C(=O)Nc1nc2ccccc2[nH]1	n	n	n	x	n	n
Cc1ccc(/C=C/C(=O)c2nc3ccccc3[nH]2)cc1	n	n	n	37	n	n
O=C(/C=C/c1c(F)cccc1Cl)Nc1nc2ccccc2[nH]1	x	x	u	37	x	x
Cc1ccc(/C=C/C(=O)Nc2nc3ccccc3[nH]2)cc1	x	x	107	n	x	x
CCNC(=O)C[C@@H]1CC[C@H]2[C@@H](COC[C@H](O)CN2C(=O)C2CCOCC2)O1	n	n	x	x	n	n
C[C@H]1CN([C@@H](C)CO)C(=O)CCCn2cc(nn2)CO[C@H]1CN(C)S(=O)(=O)c1cccc(F)c1	n	n	x	x	n	n
Cc1ccc(NC(=O)NNC(=O)Cn2nc(-c3ccccc3)c(-c3ccccc3)c(C#N)c2=O)cc1	n	n	n	x	n	104
CCOC(=O)/C=C/[C@H]1CC2(CCO1)SCCCS2	55	n	n	n	n	n
CN1CCN(C(=O)C[C@@H]2C[C@H]3c4cc(NC(=O)C5CCC5)ccc4O[C@H]3[C@H](CO)O2)CC1	n	x	x	x	n	n
C[C@H](CO)N1C[C@H](C)[C@H](CN(C)C(=O)[C@@H]2CCCN2C)OCc2ccccc2-c2c(n(C)c3ccccc23)C1=O	n	x	x	x	n	x
COC(=O)c1cc(-c2ccccc2)sc1N	51	n	n	n	n	n
Cc1c(-c2nc(N)nc(Nc3ccccc3F)n2)oc2ccccc12	48	n	122	x	n	n
Cc1cccc(Nc2nc(N)nc(-c3oc4ccccc4c3C)n2)c1	57	n	x	n	n	n
COc1cccc(Nc2nc(N)nc(-c3oc4ccccc4c3C)n2)c1	51	n	n	x	n	n
Cc1ccc(Nc2nc(N)nc(-c3oc4ccccc4c3C)n2)cc1	x	x	n	x	x	x
C[C@H](CO)N1C[C@H](C)[C@@H](CN(C)Cc2ccncc2)Oc2c(NC(=O)c3cnccn3)cccc2C1=O	n	n	x	x	n	n
O=[N+]([O-])c1ccc(Nc2nccc(Cl)n2)cc1	x	n	x	55	n	n
CC(C)(C)Nc1nc(Nc2ccc([N+](=O)[O-])cc2)nc(NC(C)(C)C)n1	n	n	x	n	n	n
CCc1cc2c(=O)c(-c3cnn(-c4ccccc4)c3)coc2c(CN2CCOCC2)c1O	54	n	n	n	n	n
Clc1ccc(OCCn2cnc3ccccc32)c(Cl)c1	71	n	n	x	n	n
SMILES	esBAF inh	Yeast UUG start	MITF act	Wnt act	PglD inh	miR-122 sensor
O=c1c2ccccc2ncn1CCCOc1ccccc1[N+](=O)[O-]	62	n	n	n	n	n
O=[N+]([O-])c1ccccc1OCCCn1cnc2ccccc21	65	n	104	n	n	n
O=[N+]([O-])c1ccccc1OCCOc1ccccc1[N+](=O)[O-]	x	x	x	n	x	x
C[C@@H]1CCCCO[C@H](CN(C)CC2CCCCC2)[C@@H](C)CN([C@H](C)CO)C(=O)c2cc(NC(=O)c3ccccc3)ccc2O1	n	n	x	x	n	n
C[C@@H]1CN([C@@H](C)CO)C(=O)c2cc(NC(=O)CCC(F)(F)F)ccc2O[C@@H](C)CCCCO[C@H]1CN(C)Cc1ccncc1	n	n	x	x	n	n
C[C@H](CO)N1C[C@H](C)[C@@H](CN(C)Cc2ccc(Oc3ccccc3)cc2)Oc2ccc(NC(=O)c3ccncc3)cc2CC1=O	n	n	x	x	n	n
C[C@@H]1CN([C@@H](C)CO)C(=O)c2cccc(NC(=O)NC3CCCCC3)c2O[C@@H]1CN(C)Cc1ccncc1	n	n	x	x	n	n
O=C(Nc1ccccn1)Nc1ccccc1Cl	53	n	x	n	n	n
O=C(Nc1ccccc1F)c1ccn[nH]1	x	x	n	n	x	n
O=C(Nc1ccc(Cl)cn1)Nc1ccccc1Cl	35	n	n	n	n	x
O=C(Nc1cnccn1)Nc1ccccc1Cl	n	n	n	n	n	n
O=C(Nc1ccccc1Cl)c1ccn[nH]1	52	n	n	x	n	n
COc1ccc(NC(=O)N[C@@H]2CC[C@H](CCNS(=O)(=O)c3cccc(Cl)c3)O[C@@H]2CO)cc1	n	n	x	x	n	x
CO[C@H]1CN(C)C(=O)c2ccc(NC(C)=O)cc2OC[C@@H](C)N(C(=O)CN(C)C)C[C@H]1C	n	x	x	x	n	n
N#C/C(=C\c1ccc(N2CCOCC2)o1)c1nc2ccccc2[nH]1	n	n	x	n	n	n
N#C/C(=C/c1ccc(N2CCOCC2)o1)c1ccc(Cl)cc1	u	x	106	n	x	n
COc1cccc(-c2nc3sc4c(c3c(=O)[nH]2)CCCCC4)c1	x	n	114	x	n	n
C[C@@H]1CN([C@H](C)CO)C(=O)c2cc(NC(=O)Nc3ccc(F)cc3)ccc2O[C@@H](C)CCCCO[C@@H]1CN(C)S(=O)(=O)c1ccc(Cl)cc1	n	n	x	x	n	n
C=CCN(C(=O)C1CC(=O)N(C2CCCC2)C1)c1nc(-c2ccc(S(C)(=O)=O)cc2)cs1 (stereo unspecified)	54	n	n	n	n	x
COCCCNC(=O)c1ccc2nc(Cc3ccc(OC)cc3)oc2c1	71	n	n	n	n	n
COc1ccc(Cc2nc3ccc(C(=O)N(C)CCO)cc3o2)cc1	n	n	n	n	n	n
C=CCNC(=O)c1ccc2nc(Cc3ccc(OC)cc3)oc2c1	89	n	x	n	n	n
COc1ccc(NC(=O)Nc2ccc3c(c2)C(=O)N([C@@H](C)CO)C[C@H](C)[C@@H](CN(C)Cc2ccc(C(F)(F)F)cc2)O3)cc1	n	n	x	x	n	n
C[C@@H]1CN([C@H](C)CO)C(=O)c2cc(C3=CCCCC3)cnc2O[C@H]1CN(C)C(=O)Cc1cccnc1	n	n	x	x	n	n
O=C1OC2(CCCCC2)OC(=O)C1=CNc1ccc2c(c1)OCO2	57	n	n	x	n	n
COc1cccc(NC=C2C(=O)OC3(CCCCC3)OC2=O)c1	n	n	x	n	n	n

Screening results (PubChem)
